The text below walks through data of ChEMBL document CHEMBL4706658, “Discovery and Biological Evaluation of N-Methyl-pyrrolo[2,3-b]pyridine-5-carboxamide Derivatives as JAK1-Selective Inhibitors” (J Med Chem, 2021).

By UniProt entry, the sequences of proteins in these tests, tags left out. Where a name states a change or a piece, a line headed by the entry shows the natural chain unless it says otherwise.
UniProt P29597: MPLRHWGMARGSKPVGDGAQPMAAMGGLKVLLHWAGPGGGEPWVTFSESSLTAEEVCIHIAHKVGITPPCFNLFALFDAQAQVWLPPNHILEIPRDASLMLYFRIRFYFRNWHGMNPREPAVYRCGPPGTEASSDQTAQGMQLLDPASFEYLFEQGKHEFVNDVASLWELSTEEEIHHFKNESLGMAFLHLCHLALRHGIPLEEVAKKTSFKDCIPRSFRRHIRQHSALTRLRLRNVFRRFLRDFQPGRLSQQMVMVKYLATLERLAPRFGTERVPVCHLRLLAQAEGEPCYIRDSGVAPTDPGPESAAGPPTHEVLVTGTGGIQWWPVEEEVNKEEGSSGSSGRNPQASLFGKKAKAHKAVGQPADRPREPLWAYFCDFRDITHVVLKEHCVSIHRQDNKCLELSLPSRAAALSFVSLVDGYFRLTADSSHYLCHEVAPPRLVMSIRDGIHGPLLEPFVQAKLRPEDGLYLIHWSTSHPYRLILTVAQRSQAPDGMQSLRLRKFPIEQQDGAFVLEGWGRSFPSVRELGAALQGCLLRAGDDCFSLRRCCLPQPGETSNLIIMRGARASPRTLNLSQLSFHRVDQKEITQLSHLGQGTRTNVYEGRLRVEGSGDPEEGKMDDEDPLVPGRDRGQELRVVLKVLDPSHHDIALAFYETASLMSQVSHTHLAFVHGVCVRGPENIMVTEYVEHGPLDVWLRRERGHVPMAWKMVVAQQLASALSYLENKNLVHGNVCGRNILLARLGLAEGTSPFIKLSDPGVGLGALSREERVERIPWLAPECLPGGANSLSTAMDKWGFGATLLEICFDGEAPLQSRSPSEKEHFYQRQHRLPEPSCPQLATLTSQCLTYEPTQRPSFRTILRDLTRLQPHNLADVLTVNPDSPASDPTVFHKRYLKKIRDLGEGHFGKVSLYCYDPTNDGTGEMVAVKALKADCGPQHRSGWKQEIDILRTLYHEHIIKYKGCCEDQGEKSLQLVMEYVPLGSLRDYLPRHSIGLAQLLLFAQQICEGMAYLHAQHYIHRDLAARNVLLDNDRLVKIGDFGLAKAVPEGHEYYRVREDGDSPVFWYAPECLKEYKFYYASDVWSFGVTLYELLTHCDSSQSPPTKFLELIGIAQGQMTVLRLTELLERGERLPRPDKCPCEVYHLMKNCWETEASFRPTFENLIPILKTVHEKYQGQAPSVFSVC
UniProt O60674: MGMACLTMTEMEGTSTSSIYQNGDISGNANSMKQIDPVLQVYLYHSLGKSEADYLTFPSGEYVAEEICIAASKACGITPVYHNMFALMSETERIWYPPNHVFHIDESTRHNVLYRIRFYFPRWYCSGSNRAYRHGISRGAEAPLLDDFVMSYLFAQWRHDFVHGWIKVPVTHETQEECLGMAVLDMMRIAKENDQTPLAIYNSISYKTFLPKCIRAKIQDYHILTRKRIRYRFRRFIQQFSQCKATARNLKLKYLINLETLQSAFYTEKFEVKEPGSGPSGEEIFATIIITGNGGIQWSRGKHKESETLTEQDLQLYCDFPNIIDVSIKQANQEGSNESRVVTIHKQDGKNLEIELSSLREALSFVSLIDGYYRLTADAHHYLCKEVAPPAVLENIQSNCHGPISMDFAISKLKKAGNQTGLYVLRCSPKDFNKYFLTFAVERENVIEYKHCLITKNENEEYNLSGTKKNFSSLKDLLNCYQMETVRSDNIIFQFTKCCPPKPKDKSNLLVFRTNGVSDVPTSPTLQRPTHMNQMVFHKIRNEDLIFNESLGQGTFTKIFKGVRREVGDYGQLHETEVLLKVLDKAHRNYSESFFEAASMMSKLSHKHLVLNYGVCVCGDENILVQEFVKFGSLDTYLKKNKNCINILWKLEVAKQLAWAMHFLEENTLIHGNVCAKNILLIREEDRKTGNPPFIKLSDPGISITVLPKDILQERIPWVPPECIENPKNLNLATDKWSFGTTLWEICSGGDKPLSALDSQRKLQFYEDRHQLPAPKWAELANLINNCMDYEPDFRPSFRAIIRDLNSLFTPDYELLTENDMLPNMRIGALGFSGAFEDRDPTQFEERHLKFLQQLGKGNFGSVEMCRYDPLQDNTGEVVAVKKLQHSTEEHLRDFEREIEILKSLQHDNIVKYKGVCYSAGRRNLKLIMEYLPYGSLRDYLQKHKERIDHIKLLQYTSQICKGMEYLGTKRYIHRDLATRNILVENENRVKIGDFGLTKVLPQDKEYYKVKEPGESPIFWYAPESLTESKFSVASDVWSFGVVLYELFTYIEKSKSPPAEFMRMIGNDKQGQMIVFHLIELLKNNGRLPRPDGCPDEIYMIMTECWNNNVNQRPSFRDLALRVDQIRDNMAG
UniProt P23458: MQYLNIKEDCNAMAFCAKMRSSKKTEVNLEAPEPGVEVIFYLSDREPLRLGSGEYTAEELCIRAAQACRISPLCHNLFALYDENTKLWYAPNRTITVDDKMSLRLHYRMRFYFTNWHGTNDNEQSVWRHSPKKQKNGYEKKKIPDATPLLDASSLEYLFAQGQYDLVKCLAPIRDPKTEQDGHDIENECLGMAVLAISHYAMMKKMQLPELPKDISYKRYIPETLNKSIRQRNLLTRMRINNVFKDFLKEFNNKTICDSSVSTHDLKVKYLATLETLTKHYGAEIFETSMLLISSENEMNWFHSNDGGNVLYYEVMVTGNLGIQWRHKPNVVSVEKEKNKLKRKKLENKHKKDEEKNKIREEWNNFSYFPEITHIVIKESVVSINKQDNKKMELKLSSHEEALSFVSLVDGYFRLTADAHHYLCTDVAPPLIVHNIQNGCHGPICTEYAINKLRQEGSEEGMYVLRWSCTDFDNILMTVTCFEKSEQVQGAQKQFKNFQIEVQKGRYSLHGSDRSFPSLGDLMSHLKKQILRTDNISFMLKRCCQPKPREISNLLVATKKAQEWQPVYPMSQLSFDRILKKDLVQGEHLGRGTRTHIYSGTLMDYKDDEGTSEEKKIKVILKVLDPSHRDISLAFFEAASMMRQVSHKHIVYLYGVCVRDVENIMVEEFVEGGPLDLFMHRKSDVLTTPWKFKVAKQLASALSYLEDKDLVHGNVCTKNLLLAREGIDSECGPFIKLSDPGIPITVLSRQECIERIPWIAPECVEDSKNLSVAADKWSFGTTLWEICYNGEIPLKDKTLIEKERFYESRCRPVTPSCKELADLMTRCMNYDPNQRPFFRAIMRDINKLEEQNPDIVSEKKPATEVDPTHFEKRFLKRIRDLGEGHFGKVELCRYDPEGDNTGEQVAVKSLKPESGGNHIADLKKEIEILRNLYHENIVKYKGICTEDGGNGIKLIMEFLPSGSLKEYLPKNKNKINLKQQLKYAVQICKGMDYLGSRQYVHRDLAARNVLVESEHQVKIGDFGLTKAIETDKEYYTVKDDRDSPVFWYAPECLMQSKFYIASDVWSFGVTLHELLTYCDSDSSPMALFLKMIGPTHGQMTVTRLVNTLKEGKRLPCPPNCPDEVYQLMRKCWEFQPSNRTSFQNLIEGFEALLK

For test [1], the target named is Non-receptor tyrosine-protein kinase TYK2 (Homo sapiens, UniProt P29597).
The target in test [2] is Tyrosine-protein kinase JAK2 (Homo sapiens, UniProt O60674).
The target in test [3] is Tyrosine-protein kinase JAK1 (Homo sapiens, UniProt P23458).

A word on the IC50: it is the concentration that gives 50% inhibition. Read a high IC50 as weaker potency. `O=C(Nc1nc2cccc(-c3ccc(CN4CCS(=O)(=O)CC4)cc3)n2n1)C1CC1` [FILGOTINIB] showed a half-inhibitory concentration (IC50) in test [1] of 65.3 nM.
As to `CNC(=O)c1cnc2[nH]ccc2c1N[C@@H]1CCN(Cc2ccc(C#N)cc2)[C@H](C)C1` (relative stereo), half-maximal inhibition in test [2] (IC50) required 4.46 nM.
Consider `CNC(=O)c1cnc2[nH]ccc2c1N[C@@H]1CCN(Cc2cccc(OC)c2)C[C@H]1F` (relative stereo), for which the figures for the IC50 in test [3] and in test [1] were 7.86 nM and 696 nM, respectively.
For `CNC(=O)c1cnc2[nH]ccc2c1N[C@@H]1CCN(Cc2ccc(OC)cc2)[C@@H](C)C1` (relative stereo), the half-maximal inhibitory concentration (IC50) in test [2] was 817 nM.
`CNC(=O)c1cnc2[nH]ccc2c1N[C@@H]1CCN(Cc2cccc(OC)c2)C[C@@H]1F` (relative stereo) registered an IC50 in test [3] of 0.769 nM.
